Results: ChEMBL document CHEMBL2331513, “Trisubstituted Sulfonamides: a New Chemotype for Development of Potent and Selective CB2 Receptor Inverse Agonists” (ACS Med Chem Lett, 2013)
pEC50: −log10 of the molar value.

The chains behind the UniProt entries cited, without tags or fusion partners.
UniProt P34972, whole entry: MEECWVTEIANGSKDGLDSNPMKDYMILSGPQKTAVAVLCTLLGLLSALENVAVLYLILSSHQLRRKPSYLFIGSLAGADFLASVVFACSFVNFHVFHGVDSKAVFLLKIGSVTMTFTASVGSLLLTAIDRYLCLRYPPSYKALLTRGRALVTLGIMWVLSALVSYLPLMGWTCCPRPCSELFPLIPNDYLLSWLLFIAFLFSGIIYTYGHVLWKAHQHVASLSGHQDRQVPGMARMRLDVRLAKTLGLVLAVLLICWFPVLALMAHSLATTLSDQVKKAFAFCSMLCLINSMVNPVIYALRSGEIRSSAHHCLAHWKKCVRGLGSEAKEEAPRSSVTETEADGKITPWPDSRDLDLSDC

Target: Cannabinoid receptor 2 (Homo sapiens, UniProt P34972)
Assay: Agonist activity at human CB2 receptor expressed in CHO cell membranes assessed as increase in forskolin-stimulated cAMP production after 45 mins by TR-FRET assay
Type: functional, cell-based

In the case of `CCCCCCC(C)(C)c1cc(OC)c(C2C=C(CO)[C@H]3C[C@@H]2C3(C)C)c(OC)c1` (stereo partly specified), the pEC50 was 7.07.
